Literature values, collected in patent publication US20050154030A1, “Antimicrobial composition” (Microban Products Company, priority 2003, published 2005).

Details: commercial form, approximately 95% active

Substance: N-alkyl dimethylbenzyl ammonium saccharinate [ONYXIDE™ 3300]
- solubility in water: insoluble in water
